A short description of data set [1]: Half life in human pooled hepatic microsomes at 1 uM up to 120 mins in presence of NADPH. Particulars: 2 h. In kind it is ADME, Liver, microsome.
The nature of data set [2]: Ratio of drug level in brain to plasma in C57BL/6 mouse at 10 mg/kg, po administered as single dose measured at 0.5 to 24 hrs post dose by LC-MS analysis. Format: ADME, organism-based.

The structures appear in SMILES notation.

As to `Clc1ccc(-n2c(-c3ccccc3Cl)nc3c(N4CCN(Cc5ccccc5Cl)CC4)ncnc32)cc1`, the t1/2 in data set [1] is 1.5 h. In data set [2], the BPR was 0.03.

These data come from ChEMBL document CHEMBL4219244, “Blocking Alcoholic Steatosis in Mice with a Peripherally Restricted Purine Antagonist of the Type 1 Cannabinoid Receptor” (J Med Chem, 2018).
